pIC50: −log10 of the molar value.
Target: T1, Geranylgeranyl pyrophosphate synthase (Homo sapiens, UniProt O95749)
T1 sequence (O95749 whole entry): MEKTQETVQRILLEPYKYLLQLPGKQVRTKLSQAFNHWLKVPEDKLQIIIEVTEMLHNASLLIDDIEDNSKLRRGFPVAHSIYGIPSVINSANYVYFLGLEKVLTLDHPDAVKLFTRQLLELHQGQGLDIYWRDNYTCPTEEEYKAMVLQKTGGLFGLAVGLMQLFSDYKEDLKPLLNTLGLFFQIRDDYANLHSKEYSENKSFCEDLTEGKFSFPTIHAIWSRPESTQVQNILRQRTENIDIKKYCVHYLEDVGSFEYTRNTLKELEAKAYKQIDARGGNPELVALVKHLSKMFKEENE
Assay: Inhibition of recombinant GGDPS (unknown origin) using FPP and [14C] IPP as substrate preincubated for 10 mins followed by substrate addition measured after 30 mins by liquid scintillation counting method
Summary of the method: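 In the enzyme assay, each compound was tested in duplicate at multiple concentrations, with three independent experiments. IC50 values were derived from concentration-response curve analysis.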

## CC(C)=CCC/C(C)=C/Cn1cc(CC(P(=O)(O)O)P(=O)(O)O)nn1
  pIC50: 5.66

— ChEMBL document CHEMBL4811322, “Impact of α-modifications on the activity of triazole bisphosphonates as geranylgeranyl diphosphate synthase inhibitors” (Bioorg Med Chem, 2021)
